# Source: the pKa sets of Baltruschat and Czodrowski (2020)
row,SMILES,pKa
1,C1CN1,8
2,NCCF,9
